# OPERA 2.9 data: melting point values

Source: data files of OPERA 2.9 (Mansouri et al.), github.com/kmansouri/OPERA.

Melting points are in °C.
Cells with "–" have no entry in this list.
"via" names the databases from which the curators took the value.

| compound | name | mp (°C) | via |
|---|---|---|---|
| O=C(O)c1ccc(-c2cccc3ccccc23)s1 | 5-(1-naphthyl)thiophene-2-carboxylic acid | 250 | OCHEM |
| NNC(=O)c1cc(-c2ccncc2)nc2ccccc12 | 2-pyridin-4-ylquinoline-4-carbohydrazide | 227 | OCHEM |
| Cc1sc(N)c(C#N)c1C | 2-amino-4,5-dimethylthiophene-3-carbonitrile | 135 | OCHEM |
| COc1ccc([N+](=O)[O-])cc1C(=O)O | 2-Methoxy-5-nitrobenzoic acid | 156.5 | OCHEM |
| Nc1nnc2ccc(Cl)nn12 | 6-Chloro[1,2,4]triazolo[4,3-b]pyridazin-3-amine | 275 | OCHEM |
| Nc1n[nH]c2ccc(C(F)(F)F)cc12 | 1H-Indazol-3-amine, 5-(trifluoromethyl)- (9CI) | 134.5 | OCHEM |
| COc1ccc(C=NO)cc1OCc1ccccc1 | 4-Methoxy-3-(phenylmethoxy)benzaldehyde oxime | 76 | OCHEM |
| COc1ccc(/C=N\O)cc1 | [C(Z)]-4-Methoxybenzaldehyde oxime | 65 | OCHEM |
| COc1ccc(F)c(O)c1F | 2,6-Difluoro-3-methoxyphenol | 74.5 | OCHEM |
| Cc1cccc(NC(=O)C=NO)c1C | N-(2,3-Dimethylphenyl)-2-(hydroxyimino)acetamide | 111 | OCHEM |
| C(=Cc1ccccn1)c1ccccn1 | – | 118 | OCHEM |
| Cc1ccc(SCCC(=O)O)cc1C | 3-[(3,4-dimethylphenyl)thio]propanoic acid | 36 | OCHEM |
| CNc1ccncc1[N+](=O)[O-] | n-methyl-3-nitropyridin-4-amine | 158 | OCHEM |
| CCCC(=O)OC/C=C(\C)CCC=C(C)C | Geranyl butyrate | -11.14 | eChemPortal |
| O=C(O)c1ccccc1C(=O)N1CCCC1 | 2-(Pyrrolidine-1-carbonyl)benzoic acid | 132 | OCHEM |
| O=C(CC(=O)Nc1ccccc1)Nc1ccccc1 | Propanediamide, N,N'-diphenyl- | 221 | OCHEM |
| CCC(=O)NC(C)C(=O)O (centres undefined) | N-(1-Oxopropyl)alanine | 90 | OCHEM |
| COc1cc(-c2nnc(CCl)o2)cc(OC)c1OC | 2-(Chloromethyl)-5-(3,4,5-trimethoxyphenyl)-1,3,4-oxadiazole | 122 | OCHEM |
| CC(=O)Nc1cc2ccccc2cc1C(=O)O | 3-(acetylamino)-2-naphthoic acid | 191 | OCHEM |
| Fc1nccc(Br)c1Br | 3,4-Dibromo-2-fluoropyridine | 75.5 | OCHEM |
| CC(=O)N(C)c1ccccc1C(=O)O | Benzoic acid, 2-((acetylmethyl)amino)- | 197 | OCHEM |
| O=C(c1cnoc1)c1ccccc1O | (2-Hydroxyphenyl)(1,2-oxazol-4-yl)methanone | 114 | OCHEM |
| NNc1ccc([N+](=O)[O-])cn1 | 2-hydrazino-5-nitropyridine | 195 | OCHEM |
| Cc1oc(-c2cccs2)nc1CCl | 4-(Chloromethyl)-5-methyl-2-(thiophen-2-yl)-1,3-oxazole | 66 | OCHEM |
| O=C(O)CN1C(=O)c2ccc([N+](=O)[O-])cc2C1=O | (5-Nitro-1,3-dioxo-1,3-dihydro-2H-isoindol-2-yl)acetic acid | 198 | OCHEM |
| NC(=O)N1CCCC1 | 1-Pyrrolidinecarboxamide | 223 | OCHEM |
| CCCCCCC(=O)OCCOCCOCCOC(=O)CCCCCC | Triethylene glycol bis(heptanoate) | -24 | OFMPub |
| Cc1ccc(S(=O)(=O)CCC(=O)O)cc1 | 3-[(4-methylphenyl)sulfonyl]propanoic acid | 109 | OCHEM |
| CCCCCCCCC=CCCCCCCCCNC(=O)CC(C(=O)[O-])S(=O)(=O)[O-].[Na+].[Na+] (stereo in doubt) | – | 268 | eChemPortal |
| Oc1ccc(Oc2ccccn2)cc1 | 4-[(Pyridin-2-yl)oxy]phenol | 143 | OCHEM |
| COc1ccc(C(=O)CC(C)=O)cc1 | 1-(4-Methoxyphenyl)butane-1,3-dione | 53 | OCHEM |
| COc1ccc(-c2noc(CCC(=O)O)n2)cc1 | 3-[3-(4-methoxyphenyl)-1,2,4-oxadiazol-5-yl]propanoic acid | 142 | OCHEM |

Excerpt, the final 5 entries:

| compound | name | mp (°C) | via |
|---|---|---|---|
| Cc1ccc(S(=O)(=O)CCC(=O)O)cc1 | 3-[(4-methylphenyl)sulfonyl]propanoic acid | 109 | OCHEM |
| CCCCCCCCC=CCCCCCCCCNC(=O)CC(C(=O)[O-])S(=O)(=O)[O-].[Na+].[Na+] (stereo in doubt) | – | 268 | eChemPortal |
| Oc1ccc(Oc2ccccn2)cc1 | 4-[(Pyridin-2-yl)oxy]phenol | 143 | OCHEM |
| COc1ccc(C(=O)CC(C)=O)cc1 | 1-(4-Methoxyphenyl)butane-1,3-dione | 53 | OCHEM |
| COc1ccc(-c2noc(CCC(=O)O)n2)cc1 | 3-[3-(4-methoxyphenyl)-1,2,4-oxadiazol-5-yl]propanoic acid | 142 | OCHEM |

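These are experimental values that the OPERA curators gathered from public databases to train and test their QSAR models. A listed value is a point estimate from one report or more. Method and conditions are not stated for these values. The measured form (salt, isomer or mixture) is not always the one drawn. Unmarked limits or estimates from the upstream databases cannot be ruled out.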